Like-named read-outs stand apart in the source and are kept apart here.
S-adenosyl-L-methionine:benzoic acid carboxyl methyltransferase [BAMT]
Stability (30-min incubation at 65° C.): completely lost activity | Stability (30 min at 20° C.): 100% | Stability (30 min at 30° C.): 60% | Stability (30 min at 42° C.): 20% | Storage stability (stored at −80° C.): highly stable for several months | Storage stability (stored in buffer A at 4° C.): stable for one week
